As a reminder, the IC50 is the concentration that inhibits the measured activity by half.

Chains of the proteins cited; added tags and fusions are not shown. Residues count along the entry.
UniProt P27958, 1027-1657: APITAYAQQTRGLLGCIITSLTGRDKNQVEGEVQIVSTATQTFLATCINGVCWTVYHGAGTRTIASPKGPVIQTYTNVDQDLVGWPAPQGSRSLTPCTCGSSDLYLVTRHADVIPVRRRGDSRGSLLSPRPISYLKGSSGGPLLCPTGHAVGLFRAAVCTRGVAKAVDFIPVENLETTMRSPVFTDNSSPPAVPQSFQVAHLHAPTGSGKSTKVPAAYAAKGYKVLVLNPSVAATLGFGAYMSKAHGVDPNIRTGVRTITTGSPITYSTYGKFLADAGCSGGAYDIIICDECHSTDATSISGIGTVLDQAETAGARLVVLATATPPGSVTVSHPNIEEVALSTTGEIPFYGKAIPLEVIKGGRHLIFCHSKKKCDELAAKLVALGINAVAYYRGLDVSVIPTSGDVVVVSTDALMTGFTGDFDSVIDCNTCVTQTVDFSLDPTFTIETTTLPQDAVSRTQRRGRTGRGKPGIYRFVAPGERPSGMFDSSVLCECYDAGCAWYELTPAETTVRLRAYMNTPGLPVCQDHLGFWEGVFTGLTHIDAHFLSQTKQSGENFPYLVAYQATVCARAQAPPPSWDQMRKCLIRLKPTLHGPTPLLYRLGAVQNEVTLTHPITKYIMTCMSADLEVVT

The assay has as its target T1, HCV NS3/4A protease complex (BMS strain) (UniProt P27958).
T1 construct: for H77 and J4L6S; fused on or other part: Probably a three-lysine solubilising tail at the C-terminus of NS4A and a His tag from pET21b (Ni-NTA purification); These are printed for the H77 and J4L6S constructs and only inferred for BMS
The assay can be described thus: Recombinant HCV NS3/4A protease complex FRET peptide assay (BMS strain). In kind it is biochemical, Hepatitis C virus (genotype 1a. Particulars: read-out: IC50 (uuM); NS3/4A BMS strain; activity range class. The source says:
Serum from an HCV-infected patient was obtained from Dr. T. Wright, San Francisco Hospital. An engineered full-length cDNA (compliment deoxyribonucleic acid) template of the HCV genome (BMS strain) was constructed from DNA fragments obtained by reverse transcription-PCR (RT-PCR) of serum RNA (ribonucleic acid) and using primers selected on the basis of homology between other genotype 1a strains.
The H77 and J4L6S strains were used for production of recombinant NS3/4A protease complexes. […] Briefly, a three-lysine solubilizing tail was added at the 3′-end of the NS4A coding region. […] Briefly, the NS3/4A protease complex expression was induced with 0.5 millimolar (mM) Isopropyl β-D-1-thiogalactopyranoside (IPTG) for 22 hours (h) at 20° C. […] The cells were resuspended in lysis buffer (10 mL/g) consisting of 25 mM N-(2-Hydroxyethyl)Piperazine-N′-(2-Ethane Sulfonic acid) (HEPES), pH 7.5, 20% glycerol, 500 mM Sodium Chloride (NaCl), 0.5% Triton X-100, 1 microgram/milliliter (“μg/mL”) lysozyme, 5 mM Magnesium Chloride (MgCl2), 1 gg/ml DnaseI, 5 mM β-Mercaptoethanol (βME), Protease inhibitor—Ethylenediamine Tetraacetic acid (EDTA) free (Roche), homogenized and incubated for 20 minutes (min) at 4° C. The homogenate was sonicated and clarified by ultra-centrifugation at 235000 g for 1 h at 4° C. […]

With `C=C[C@@H]1C[C@]1(NC(=O)[C@@H]1C[C@@H](Oc2nccc3cc(OC)ccc23)CN1C(=O)[C@@H](NC(=O)OC(C)(C)C)C(C)(C)C)C(=O)NS(=O)(=O)c1nc2ccc(OCC)cc2s1` [Compound 1002], the IC50 is 100 to 1000 nM.
